Source: PubChem BioAssay AID1136 (Sanford-Burnham Center for Chemical Genomics, 2008)
Some of the results follow. Activity calls are given as the source filed them.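 Rule for the calls: active = activation factor at least 2 at 20 µM; inactive = the rest.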

Protein sequences, listed by entry. Tags and fused reporters are not part of them.
UniProt P05186, whole entry: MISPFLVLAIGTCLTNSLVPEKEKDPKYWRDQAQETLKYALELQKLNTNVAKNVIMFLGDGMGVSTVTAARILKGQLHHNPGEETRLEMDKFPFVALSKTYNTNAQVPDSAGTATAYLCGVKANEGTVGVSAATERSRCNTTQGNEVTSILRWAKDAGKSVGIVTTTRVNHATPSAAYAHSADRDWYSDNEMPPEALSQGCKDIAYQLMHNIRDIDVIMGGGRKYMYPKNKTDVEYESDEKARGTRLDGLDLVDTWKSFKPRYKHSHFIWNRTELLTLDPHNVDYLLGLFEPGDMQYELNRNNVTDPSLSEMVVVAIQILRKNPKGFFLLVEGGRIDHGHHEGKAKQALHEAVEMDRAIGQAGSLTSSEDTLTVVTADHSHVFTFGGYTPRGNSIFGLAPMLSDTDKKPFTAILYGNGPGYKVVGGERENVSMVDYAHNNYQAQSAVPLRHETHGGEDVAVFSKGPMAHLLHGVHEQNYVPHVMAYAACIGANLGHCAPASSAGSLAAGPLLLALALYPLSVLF

Target: Alkaline phosphatase, tissue-nonspecific isozyme (Homo sapiens) (UniProt P05186)
Assay: TNAP activators at high phosphate acceptor level, primary screen, biochemical, luminescence, uHTS (AID 1136)
Settings: purified TNAP, CDP-star luminescence, 1 M DEA, 30 min, at 20 µM; active compounds read high, 0 = EDTA background, 1 = DMSO-only activity

Row | SMILES | activation factor
1 | COc1ccc(NC2CCN(CCc3ccccc3)CC2)c(OC)c1 | inactive
2 | O=C(OC1CN2CCC1CC2)C1c2ccccc2Oc2ccccc21 (stereo not given) | inactive
3 | CCOC(=O)N1CCC(Nc2ccc(OC)cc2)CC1 | inactive
4 | O=C(NCC1(N2CCOCC2)CCCCC1)c1cc2ccccc2o1 | inactive
5 | COc1ccc(C(=O)NCC2(N3CCCCC3)CCCCC2)c(OC)c1OC | inactive: 1.1
6 | CC(C)c1ccc(NC2CCN(C(=O)OC(C)(C)C)CC2)cc1 | inactive: 1.1
7 | CN(C)c1cccc(C(=O)NCC2(N3CCCCC3)CCCCC2)c1 | inactive
8 | COc1ccc(CN(CCCl)CCCl)cc1Cl | inactive: 1.1
9 | O=C(NCC1(N2CCOCC2)CCCCC1)c1cc(=O)[nH]c2ccccc12 | inactive
10 | COc1ccc(NC2CCN(C(=O)OC(C)(C)C)CC2)cc1 | inactive
11 | CN1CCN(CCOC(=O)C(O)(c2ccccc2)c2ccccc2)CC1 | inactive: 1.1
12 | N#CC1(Nc2ccccc2)CCN(CCc2ccccc2)CC1 | inactive: 1.1
13 | O=C(NCC1(N2CCCCC2)CCCCC1)c1cccc([N+](=O)[O-])c1 | inactive
14 | c1ccc(CN2CCC(Nc3ccccc3)CC2)cc1 | inactive
15 | N#Cc1ccc(C(=O)NCC2(N3CCCCC3)CCCCC2)cc1 | inactive
16 | O=C(OC1CN2CCC1CC2)C1c2ccccc2C=Cc2ccccc21 (stereo not given) | inactive: 1.1
17 | N/C(=N\O)c1c(N)no[n+]1[O-] | inactive: 1.1
18 | COc1ccc(C(=O)NCC2(N3CCOCC3)CCCCC2)cc1OC | inactive
19 | COc1cc(OC)cc(C(=O)NCC2(N3CCOCC3)CCCCC2)c1 | inactive
20 | CCC(CO)(C(=O)OC1CN2CCC1CC2)c1ccccc1 (stereo not given) | inactive
21 | CC(C)(C)OC(=O)N1CCC(Nc2ccccc2)CC1 | inactive
22 | CCOc1ncccc1C(=O)NCC1(N2CCOCC2)CCCCC1 | inactive: 1.1
23 | CN(C)c1ccc(C(=O)NCC2(N3CCCCC3)CCCCC2)cc1 | inactive: 1.1
24 | CCN1CCC(Nc2cccc(F)c2)CC1 | inactive
25 | Fc1ccccc1NC1CCN(Cc2ccccc2)CC1 | inactive: 1.1
